{
  "sequences": {"note": "The chains behind the UniProt entries cited, without tags or fusion partners.", "UniProt P08172, whole entry": "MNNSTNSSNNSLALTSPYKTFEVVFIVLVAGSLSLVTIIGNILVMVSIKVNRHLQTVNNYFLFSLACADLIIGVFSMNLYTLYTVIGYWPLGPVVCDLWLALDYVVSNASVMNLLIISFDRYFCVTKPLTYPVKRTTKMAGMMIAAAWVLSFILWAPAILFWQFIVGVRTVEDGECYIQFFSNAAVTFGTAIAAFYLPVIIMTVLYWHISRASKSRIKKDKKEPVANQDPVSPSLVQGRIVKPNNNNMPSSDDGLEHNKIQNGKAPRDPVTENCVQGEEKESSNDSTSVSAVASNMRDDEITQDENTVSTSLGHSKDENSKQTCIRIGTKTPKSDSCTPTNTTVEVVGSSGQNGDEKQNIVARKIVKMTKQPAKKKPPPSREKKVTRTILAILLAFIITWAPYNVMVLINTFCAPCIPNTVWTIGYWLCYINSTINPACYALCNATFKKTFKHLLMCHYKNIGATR", "UniProt P08172, whole entry Y177Q": "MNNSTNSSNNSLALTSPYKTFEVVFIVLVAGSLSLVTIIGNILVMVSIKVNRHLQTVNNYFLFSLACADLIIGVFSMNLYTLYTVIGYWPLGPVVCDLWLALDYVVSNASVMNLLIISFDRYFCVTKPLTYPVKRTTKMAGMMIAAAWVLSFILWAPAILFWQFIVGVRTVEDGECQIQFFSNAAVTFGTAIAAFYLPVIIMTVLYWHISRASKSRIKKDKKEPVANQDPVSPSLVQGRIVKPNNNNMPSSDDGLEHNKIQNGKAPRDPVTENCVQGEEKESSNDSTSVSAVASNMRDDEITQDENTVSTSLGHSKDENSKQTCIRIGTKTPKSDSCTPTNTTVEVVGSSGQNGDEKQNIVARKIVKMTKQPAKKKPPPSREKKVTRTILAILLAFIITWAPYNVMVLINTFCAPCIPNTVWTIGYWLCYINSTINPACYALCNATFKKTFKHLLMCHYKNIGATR", "UniProt P08172, whole entry Y177Q/T423H": "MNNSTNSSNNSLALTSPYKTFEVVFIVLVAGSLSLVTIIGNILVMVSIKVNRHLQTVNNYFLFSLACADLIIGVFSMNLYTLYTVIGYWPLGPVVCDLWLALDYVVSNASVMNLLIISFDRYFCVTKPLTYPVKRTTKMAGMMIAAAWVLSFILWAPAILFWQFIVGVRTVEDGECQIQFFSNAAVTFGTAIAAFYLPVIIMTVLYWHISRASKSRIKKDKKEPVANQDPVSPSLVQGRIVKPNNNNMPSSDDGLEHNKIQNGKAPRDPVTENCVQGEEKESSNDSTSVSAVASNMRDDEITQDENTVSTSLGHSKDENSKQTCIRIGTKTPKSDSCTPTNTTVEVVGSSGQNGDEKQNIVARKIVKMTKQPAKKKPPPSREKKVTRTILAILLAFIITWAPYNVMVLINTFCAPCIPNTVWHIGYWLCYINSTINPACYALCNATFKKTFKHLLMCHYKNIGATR", "UniProt P08172, whole entry Y104A": "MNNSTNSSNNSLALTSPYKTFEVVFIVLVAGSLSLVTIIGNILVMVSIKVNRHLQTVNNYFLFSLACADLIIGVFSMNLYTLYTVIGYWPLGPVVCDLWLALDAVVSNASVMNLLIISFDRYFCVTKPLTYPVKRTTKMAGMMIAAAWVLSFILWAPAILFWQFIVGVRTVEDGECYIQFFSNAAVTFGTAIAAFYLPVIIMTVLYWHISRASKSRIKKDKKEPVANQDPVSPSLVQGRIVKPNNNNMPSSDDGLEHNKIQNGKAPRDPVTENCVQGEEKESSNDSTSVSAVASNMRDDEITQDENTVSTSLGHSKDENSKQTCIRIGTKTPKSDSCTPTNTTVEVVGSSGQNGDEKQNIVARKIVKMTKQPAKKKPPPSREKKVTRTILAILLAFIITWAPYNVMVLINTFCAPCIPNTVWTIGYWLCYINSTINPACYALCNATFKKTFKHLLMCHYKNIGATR", "UniProt P08172, whole entry W422A": "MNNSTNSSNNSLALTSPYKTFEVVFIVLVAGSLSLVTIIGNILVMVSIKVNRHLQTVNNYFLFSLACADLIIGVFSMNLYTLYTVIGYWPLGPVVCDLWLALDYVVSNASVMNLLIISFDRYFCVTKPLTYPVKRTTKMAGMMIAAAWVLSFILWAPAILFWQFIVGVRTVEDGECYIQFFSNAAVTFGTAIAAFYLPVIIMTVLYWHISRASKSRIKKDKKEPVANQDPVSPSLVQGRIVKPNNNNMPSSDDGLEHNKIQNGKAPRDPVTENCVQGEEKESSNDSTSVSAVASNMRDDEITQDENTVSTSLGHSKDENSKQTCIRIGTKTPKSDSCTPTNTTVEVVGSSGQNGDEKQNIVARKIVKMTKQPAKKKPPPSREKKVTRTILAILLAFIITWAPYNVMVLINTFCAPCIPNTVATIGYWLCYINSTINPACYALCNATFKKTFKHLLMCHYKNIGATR", "UniProt P08912, whole entry": "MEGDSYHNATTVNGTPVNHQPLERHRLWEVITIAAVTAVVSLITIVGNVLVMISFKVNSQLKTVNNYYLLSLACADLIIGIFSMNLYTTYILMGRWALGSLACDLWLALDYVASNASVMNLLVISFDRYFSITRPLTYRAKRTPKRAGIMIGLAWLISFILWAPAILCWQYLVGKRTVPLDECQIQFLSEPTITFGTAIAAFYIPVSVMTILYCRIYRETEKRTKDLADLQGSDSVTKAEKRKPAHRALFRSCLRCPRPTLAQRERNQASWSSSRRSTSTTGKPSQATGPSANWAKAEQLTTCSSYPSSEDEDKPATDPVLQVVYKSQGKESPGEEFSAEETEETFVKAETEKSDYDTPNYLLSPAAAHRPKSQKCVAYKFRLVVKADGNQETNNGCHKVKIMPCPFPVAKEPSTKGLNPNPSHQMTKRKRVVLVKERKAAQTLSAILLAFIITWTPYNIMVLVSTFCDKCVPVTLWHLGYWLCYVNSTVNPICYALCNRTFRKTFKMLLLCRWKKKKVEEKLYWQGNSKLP"},
  "source": "ChEMBL document CHEMBL3352008",
  "about": "“Dualsteric muscarinic antagonists--orthosteric binding pose controls allosteric subtype selectivity” (J Med Chem, 2014)",
  "format_in_all_cases": "cell-based",
  "key": {"[1]": {"molecular_target": "Muscarinic acetylcholine receptor M2 (Homo sapiens, UniProt P08172)", "test": "Displacement of [3H]-NMS from wild-type human muscarinic M2 receptor expressed in Flp-In-CHO cells by liquid scintillation counting", "in_short": "(§1)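 Separated by rapid filtration, counted by liquid scintillation. Means ± SEM of 3−4 independent experiments in triplicate; unpaired two-tailed t test versus wild type.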"}, "[2]": {"molecular_target": "Muscarinic acetylcholine receptor M2 (Homo sapiens, UniProt P08172, Y177Q)", "test": "Displacement of [3H]-NMS from human muscarinic M2 Y177Q mutant expressed in Flp-In-CHO cells by liquid scintillation counting", "in_short": "as §1"}, "[3]": {"molecular_target": "Muscarinic acetylcholine receptor M2 (Homo sapiens, UniProt P08172, T423H/Y177Q)", "test": "Displacement of [3H]-NMS from human muscarinic M2 Y177Q/T423H mutant expressed in Flp-In-CHO cells by liquid scintillation counting", "in_short": "as §1"}, "[4]": {"molecular_target": "Muscarinic acetylcholine receptor M2 (Homo sapiens, UniProt P08172, Y104A)", "test": "Displacement of [3H]-NMS from human muscarinic M2 Y104A mutant expressed in Flp-In-CHO cells by liquid scintillation counting", "in_short": "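Bound separated either by rapid filtration or, in some cases, by centrifugation at 21000g, 15 °C, 20 min. Pellet washed once, resuspended, counted by liquid scintillation. Triplicate determinations.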"}, "[5]": {"molecular_target": "Muscarinic acetylcholine receptor M5 (Homo sapiens, UniProt P08912)", "test": "Displacement of [3H]-NMS from wild-type human muscarinic M5 receptor expressed in CHO-K1 cells by liquid scintillation counting", "in_short": "as §1"}, "[6]": {"molecular_target": "Muscarinic acetylcholine receptor M2 (Homo sapiens, UniProt P08172, W422A)", "test": "Displacement of [3H]-NMS from human muscarinic M2 W422A mutant expressed in Flp-In-CHO cells by liquid scintillation counting", "in_short": "as §1"}},
  "data": [
    {"smiles": "CN1[C@@H]2C[C@@H](OC(=O)[C@H](CO)c3ccccc3)C[C@H]1[C@@H]1O[C@@H]12", "note": "[SCOPOLAMINE]", "values": [
      {"measurement": "Ki", "setting": "[1]", "value": 3.02, "unit": "nM"},
      {"measurement": "Ki", "setting": "[2]", "value": 3.31, "unit": "nM"},
      {"measurement": "Ki", "setting": "[3]", "value": 3.55, "unit": "nM"},
      {"measurement": "Ki", "setting": "[4]", "value": 28.8, "unit": "nM"},
      {"measurement": "Ki", "setting": "[5]", "value": 1.29, "unit": "nM"},
      {"measurement": "Ki", "setting": "[6]", "value": 3.31, "unit": "nM"}
    ]}
  ]
}
